Our source for the IC50 values is ChEMBL document CHEMBL3414532 (J Med Chem, 2015).

The structures appear in SMILES notation.

In one assay the target is Gag-Pol polyprotein (Moloney murine leukemia virus isolate Shinnick, UniProt P03355). Description: Inhibition of Moloney murine leukemia virus reverse transcriptase polymerase activity using Td100/Pd18 DNA-DNA substrate incubated for 30 mins by fluorescence assay.
A short description of assay [1]: Inhibition of Escherichia coli RNase H pre-incubated for 10 mins before HTS-1 RNA/DNA duplex substrate addition by fluorescence assay. The procedure, abridged: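 E. coli RNase H at 4 nM with 6 mM MgCl2 and inhibitor at 1, 7 or 30 μM (2% DMSO final) in 50 mM Tris pH 7.8, 50 mM NaCl. Preincubated 10 min at room temperature, then started with 100 nM HTS-1 (fluorescein/Dabcyl RNA/DNA duplex). Run 5 min at 37 °C, stopped with 33 mM EDTA, fluorescence read at 485/528 nm. IC50 taken at curve midpoint; duplicates, at least two independent experiments.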

Assay [2] is described as follows: Inhibition of Moloney murine leukemia virus reverse transcriptase associated RNase H pre-incubated for 10 mins before HTS-1 RNA/DNA duplex substrate addition by fluorescence assay. The essentials: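 Preincubated 10 min at room temperature, then started with 100 nM HTS-1 duplex. Run 15 min at 37 °C, quenched with 33 mM EDTA, fluorescence read at 485/528 nm. IC50 at curve midpoint; duplicates, at least two experiments.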

On Gag-Pol polyprotein, `N#Cc1ccc(-c2ccc(Cc3ccc4c(c3)CC(=O)N(O)C4=O)cc2)cc1` registered an IC50 of 8.5 µM.

Regarding `O=C1Cc2cc(Cc3ccc(-c4ccncc4)cc3)ccc2C(=O)N1O`, at Gag-Pol polyprotein, inhibition was half-maximal at 2.8 µM (IC50). Turning to `O=C1Cc2cc(Cc3ccc(C(F)(F)F)cc3)ccc2C(=O)N1O`, the IC50 against Gag-Pol polyprotein turned out to be 6.9 µM; in assay [1], 7.2 µM. Regarding `O=C1Cc2cc(Cc3ccc(C4CC4)cc3)ccc2C(=O)N1O`, the IC50 was determined as 3.1 µM against Gag-Pol polyprotein and 3.2 µM in assay [1]. Consider `O=C1Cc2cc(Cc3ccc(Cl)cc3)ccc2C(=O)N1O`, for which the IC50 on Gag-Pol polyprotein came out at 7.1 µM; in assay [1] it was 4.5 µM.

`CS(=O)(=O)c1ccc(-c2ccc(Cc3ccc4c(c3)CC(=O)N(O)C4=O)cc2)cc1` displayed an IC50 at Gag-Pol polyprotein of 3.9 µM. This counts as single-digit micromolar. For the compound `COc1ccc(-c2ccc(Cc3ccc4c(c3)CC(=O)N(O)C4=O)cc2)cc1`, the IC50 in assay [2] was more than 30 µM; against Gag-Pol polyprotein it was 11 µM; in assay [1], 3.1 µM. As to `O=C1Cc2cc(Cc3ccc(-c4ccccc4)cc3)ccc2C(=O)N1O`, the IC50 on Gag-Pol polyprotein came to 13 µM. At Gag-Pol polyprotein, `O=C1Cc2cc(Cc3ccc(-c4ccc(F)cc4)cc3)ccc2C(=O)N1O` yielded an IC50 of 11 µM.

Broadly, the IC50 is the concentration that gives 50% inhibition. The low end stands for greater potency in that assay, the high end for weaker potency in that assay.
